Experimental findings from PubChem BioAssay AID1717 (Vanderbilt High Throughput Screening Facility, 2009) are described below.

Chains of the proteins cited; added tags and fusions are not shown.
UniProt Q9H2X9, whole entry: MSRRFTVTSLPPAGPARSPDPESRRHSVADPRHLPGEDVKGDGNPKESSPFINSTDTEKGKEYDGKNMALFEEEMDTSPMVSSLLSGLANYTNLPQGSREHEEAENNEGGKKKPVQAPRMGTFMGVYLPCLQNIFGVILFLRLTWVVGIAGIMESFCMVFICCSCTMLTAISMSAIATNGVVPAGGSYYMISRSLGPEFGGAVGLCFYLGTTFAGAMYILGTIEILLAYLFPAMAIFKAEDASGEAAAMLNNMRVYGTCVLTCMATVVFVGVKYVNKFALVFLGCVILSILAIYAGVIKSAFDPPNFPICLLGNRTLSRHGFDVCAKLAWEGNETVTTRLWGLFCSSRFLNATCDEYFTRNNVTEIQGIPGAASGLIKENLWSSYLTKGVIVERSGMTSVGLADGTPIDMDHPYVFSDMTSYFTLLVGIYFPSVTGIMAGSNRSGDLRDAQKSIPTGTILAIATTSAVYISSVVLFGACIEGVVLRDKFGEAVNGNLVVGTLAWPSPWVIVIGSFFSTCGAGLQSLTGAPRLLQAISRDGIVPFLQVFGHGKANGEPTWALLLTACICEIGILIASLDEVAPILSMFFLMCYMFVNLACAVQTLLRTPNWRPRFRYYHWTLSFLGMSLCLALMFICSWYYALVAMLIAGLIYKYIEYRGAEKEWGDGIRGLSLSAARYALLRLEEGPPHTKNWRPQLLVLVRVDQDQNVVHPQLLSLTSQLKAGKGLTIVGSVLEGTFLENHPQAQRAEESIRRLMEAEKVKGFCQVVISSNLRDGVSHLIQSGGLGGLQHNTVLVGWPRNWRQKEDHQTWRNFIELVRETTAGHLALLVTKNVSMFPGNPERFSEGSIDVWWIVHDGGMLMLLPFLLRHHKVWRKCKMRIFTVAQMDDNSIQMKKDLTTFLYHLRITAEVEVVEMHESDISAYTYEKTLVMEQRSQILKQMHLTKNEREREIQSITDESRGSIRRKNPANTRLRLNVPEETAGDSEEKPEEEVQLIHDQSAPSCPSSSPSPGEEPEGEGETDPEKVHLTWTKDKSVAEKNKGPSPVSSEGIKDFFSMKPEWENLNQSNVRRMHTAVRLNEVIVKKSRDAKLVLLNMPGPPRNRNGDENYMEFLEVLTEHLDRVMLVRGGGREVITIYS

This is a selection; strong and weak results do not stand in their true shares. Records with an inconclusive call do not appear. Activity calls are given as the source filed them.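 Rule for the calls: active = thallium flux slope beyond 3 SD from same-plate DMSO control mean in most replicates, usually higher, sometimes lower; inconclusive = repeat tests gave conflicting results; inactive = no significant difference from controls in most replicates.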

The target of this assay is Solute carrier family 12 member 5 (Homo sapiens) (UniProt Q9H2X9). In words: KCC2 inhibitors and activators, ouabain retest, confirmation, HEK-KCC2 cells (AID 1717).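 Note: slope of initial-normalized fluorescence between seconds 10 and 20 after thallium.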 The note with it: HEK293-KCC2, thallium flux FluoZin2 fluorescence, at 10 µM, bidirectional: low = inhibitor, high = activator.
As for `CP(=O)(Nc1ccccc1)Oc1ccc(F)cc1` (stereo unspecified), the raw Tl+ flux slope (below DMSO = inhibition, above = activation) was inactive: 0.0642.
